“Also recorded” adds a separate entry of the source.
System: Male Sprague-Dawley rats
Assay: Gentamicin-induced nephrotoxicity in rats
Format: in vivo, rat
Conditions: day 11
Protocol: Male Sprague-Dawley rats weighing approximately 230-260 g were administrated 0.9% saline, 50 mg/kg gentamicin, or 200 mg/kg gentamicin intraperitoneally daily for 10 days. Rats were provided with free access to food and water and subjected to a 12-hour light and dark cycle. Rats were euthanized on day 11, and urine, plasma, and tissue samples were collected and analyzed. Tissue samples were fixed in 10% neutral buffered formalin or snap frozen. For histologic assessment, […] paraffin sections were prepared and stained with hematoxylin and eosin. The rat studies were undertaken in accordance with criteria outlined in a license granted under the Animals (Scientific Procedures) Act 1986 and approved by the University of Liverpool Animal Ethics Committee.
Microbead-based assays for rodent and human plasma and serum KIM-1 were developed, and extensive validation of the assays were performed using previously described approaches.^24 Urinary KIM-1 in rodents and humans was measured using microbead based assays as described previously.5,7,25,26 Capture antibodies (MAB 1817 for mouse, AF1750 for human [R&D Systems]), MARKE^25 antibody for rat (developed at Brigham and Women's Hospital) were conjugated with COOH polystyrene beads (Bio-Rad) with an amine coupling kit (Bio-Rad) using N-hydroxysuccinamide-1-ethyl-3-(3-dimethylaminopropyl) carbodiimide chemistry according to the manufacturer's protocol. Approximately 6000 beads in […] of sample diluent buffer (0.1M HEPES, 0.1M NaCl, 0.1% Tween-20, and 1% BSA; pH, 7.4; filter sterilized) were incubated with […] of sample or recombinant KIM-1 protein (1817-TM-050-CF for mice, 1750-TM for humans [R&D systems]), and KIM-FC for rats [developed at Brigham and Women's Hospital]) for 45 minutes. […]
The inventors also investigated whether plasma KIM-1 levels can serve as a biomarker in gentamicin-induced kidney injury in a different rodent species, rats. […] The extent of kidney damage was assessed by histo-pathologic analysis and changes in plasma creatinine. […]

gentamicin
Plasma creatinine (50 mg/kg per day for 10 days): but not those treated with 50 mg/kg gentamicin | Plasma creatinine (200 mg/kg per day for 10 days): significantly elevated | plasma KIM-1 levels (10 daily doses of 50 or 200 mg/kg): elevated in a graded fashion; also recorded: significantly increased

Reference: patent US10712349B2, “Circulating KIM-1 levels for detection of pathologies associated with injury to, or cancer of, the kidney” (THE BRIGHAM AND WOMEN'S HOSPITAL, INC., priority 2014, dated 2020)
